50 molecules from patent publication US10183938B2, “Geminal substituted quinuclidine amide compounds as agonists of α-7 nicotonic acetylcholine receptors” (AXOVANT SCIENCES GMBH, priority 2014, dated 2019) can be followed below.

Protein sequences, listed by entry. Tags and fused reporters are not part of them. Residues count along the entry.
UniProt P36544, 23-502 limits assumed: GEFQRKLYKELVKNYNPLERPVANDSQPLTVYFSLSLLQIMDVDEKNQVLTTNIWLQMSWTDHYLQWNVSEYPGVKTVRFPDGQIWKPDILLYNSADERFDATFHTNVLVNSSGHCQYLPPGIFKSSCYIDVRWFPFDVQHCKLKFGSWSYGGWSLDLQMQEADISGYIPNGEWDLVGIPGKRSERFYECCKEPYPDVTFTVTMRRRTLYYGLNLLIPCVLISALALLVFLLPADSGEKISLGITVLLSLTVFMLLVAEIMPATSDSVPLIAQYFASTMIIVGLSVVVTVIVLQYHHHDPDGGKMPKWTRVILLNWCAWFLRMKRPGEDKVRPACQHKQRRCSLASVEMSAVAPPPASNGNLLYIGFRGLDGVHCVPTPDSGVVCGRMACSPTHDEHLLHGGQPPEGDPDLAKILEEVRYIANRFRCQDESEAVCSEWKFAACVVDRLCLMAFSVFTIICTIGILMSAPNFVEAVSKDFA

Where a name gives a salt, the structure may show the parent alone. Where only a bound is given, the exact number is not on record here.

This experiment has as its target human α7 nAChR (Homo sapiens (Human), UniProt P36544). In words: Human α7 nAChR binding assay ([125I]-αBungarotoxin competition binding). The settings on record: read-out: h-a7 Ki; SH-SY5Y membranes, 0.05 nM [125I]-αBgt, Cheng Prusoff.
Usually Ki stands for a measure of affinity in units of concentration, obtained from inhibition or displacement. As for `CC(C)(C)c1ccc2cc(C(=O)N[C@@H]3C4CCN(CC4)C3(C)C)sc2c1`, the Ki was greater than 30 µM.

On to `CC(C)(C)c1ccc2cc(C(=O)N[C@@H]3C4CCN(CC4)C34CC4)sc2c1`, for which the inhibition constant Ki is greater than 30 µM.

On to `CC1(C)[C@H](NC(=O)c2cc3c(s2)CCCC3)C2CCN1CC2`, for which the Ki was greater than 30 µM.

Regarding `CC1(C)[C@H](NC(=O)c2cc3cccc(OC(F)(F)F)c3s2)C2CCN1CC2`, the Ki worked out at 0.52 µM.

Take `CC1(C)[C@H](NC(=O)c2ccc3c(c2)OC(F)(F)O3)C2CCN1CC2`: the Ki was greater than 30 µM.

On to `CC1(C)[C@H](NC(=O)c2cn3ccnc3cn2)C2CCN1CC2`, for which the inhibition constant (Ki) was greater than 30 µM.

`CC1(C)[C@H](NC(=O)c2cnc3ccccc3c2)C2CCN1CC2`: the Ki was greater than 30 µM.

Consider `CN(C)c1ccc2cc(C(=O)N[C@@H]3C4CCN(CC4)C3(C)C)sc2c1`, for which the Ki worked out at 8 µM.

For the molecule `COc1ccc(C(=O)N[C@@H]2C3CCN(CC3)C2(C)C)cc1C`, the inhibition constant Ki was greater than 30 µM.

On to `COc1ccc(C(=O)N[C@@H]2C3CCN(CC3)C23CC3)cc1C`, for which the Ki is greater than 30 µM.

Regarding `Cn1c(C(=O)N[C@@H]2C3CCN(CC3)C2(C)C)nc2ccccc21`, the inhibition constant (Ki) is greater than 30 µM.

For `Cn1ccc2cc(C(=O)N[C@@H]3C4CCN(CC4)C3(C)C)ccc21`, the inhibitory constant (Ki) was greater than 30 µM.

As to `Cn1nc(C(=O)N[C@@H]2C3CCN(CC3)C2(C)C)c2ccccc21`, the inhibition constant (Ki) is greater than 30 µM.

Turning to `Cn1nc(C(=O)N[C@@H]2C3CCN(CC3)C23CC3)c2ccccc21`, the Ki was greater than 30 µM.

Consider `O=C(N[C@@H]1C2CCN(CC2)C12CC2)c1ccc2c(c1)OC(F)(F)O2`, for which the Ki was greater than 30 µM.

`O=C(N[C@@H]1C2CCN(CC2)C12CC2)c1ccc2ncccc2c1`: the inhibition constant (Ki) was greater than 30 µM.

In the case of `O=C(N[C@@H]1C2CCN(CC2)C12CC2)c1cn2ccnc2cn1`, the Ki is greater than 30 µM.

As for `O=C(N[C@@H]1C2CCN(CC2)C12CC2)c1cnc2ccccc2c1`, the Ki was greater than 30 µM.

As to `O=C(NC1C2CCN(CC2)C12CC2)c1cc2cc(F)ccc2s1` (single isomer, unassigned), the inhibition constant (Ki) stood at 0.2 µM.

Regarding `O=C(NC1C2CCN(CC2)C12CC2)c1cc2ccc(F)cc2s1` (single isomer, unassigned), the inhibitory constant (Ki) was 0.22 µM.

As for `O=C(NC1C2CCN(CC2)C12CC2)c1cc2cccc(Cl)c2s1` (single isomer, unassigned), the inhibition constant (Ki) is 0.037 µM.

As to `O=C(NC1C2CCN(CC2)C12CC2)c1ccc2ccsc2c1` (single isomer, unassigned), the Ki was 0.11 µM.

On to `O=C(NC1C2CCN(CC2)C12CC2)c1ccc2occc2c1` (single isomer, unassigned), for which the Ki is 0.25 µM.

Regarding `CC1(C)[C@H](NC(=O)c2cc3ccccc3s2)C2CCN1CC2` [(R)-1, (R)—N-(2,2-dimethylquinuclidin-3-yl)benzo[b]thiophene-2-carboxamide hydrochloride], the Ki was determined as 0.27 µM.

With `CC1(C)[C@H](NC(=O)c2cc3cccc(Cl)c3s2)C2CCN1CC2` [(R)-3, (R)-7-chloro-N-(2,2-dimethylquinuclidin-3-yl)benzo[b]thiophene-2-carboxamide hydrochloride], the inhibition constant (Ki) amounted to 0.11 µM.

On to `CC1(C)[C@H](NC(=O)c2cc3ccc(F)cc3s2)C2CCN1CC2` [(R)-8, (R)—N-(2,2-dimethylquinuclidin-3-yl)-6-fluorobenzo[b]thiophene-2-carboxamide hydrochloride], for which the Ki was determined as 0.83 µM.

As to `CC1(C)[C@H](NC(=O)c2cc3cc(C(F)(F)F)ccc3s2)C2CCN1CC2` [(R)-17, (R)—N-(2,2-dimethylquinuclidin-3-yl)-5-(trifluoromethyl)benzo[b]thiophene-2-carboxamide hydrochloride], the Ki was greater than 30 µM.

For the molecule `CC1(C)[C@H](NC(=O)c2cnn3ncccc23)C2CCN1CC2` [(R)-27, (R)—N-(2,2-dimethylquinuclidin-3-yl)pyrazolo[1,5-b]pyridazine-3-carboxamide hydrochloride], the Ki was greater than 30 µM.

`Cc1nc2ccc(C(=O)N[C@@H]3C4CCN(CC4)C3(C)C)cc2o1` [(R)-33, (R)—N-(2,2-dimethylquinuclidin-3-yl)-2-methylbenzo[d]oxazole-6-carboxamide]: the Ki was greater than 30 µM.

In the case of `CC1(C)[C@H](NC(=O)c2cnc3occc3c2)C2CCN1CC2` [(R)-36, (R)—N-(2,2-dimethylquinuclidin-3-yl)furo[2,3-b]pyridine-5-carboxamide hydrochloride], the Ki is greater than 30 µM.

Take `CC1(C)[C@H](NC(=O)c2ccc3occc3n2)C2CCN1CC2` [(R)-37, (R)—N-(2,2-dimethylquinuclidin-3-yl)furo[3,2-b]pyridine-5-carboxamide hydrochloride]: the Ki is greater than 30 µM.

With `Cn1cnc2cc(C(=O)N[C@@H]3C4CCN(CC4)C3(C)C)ccc21` [(R)-42, (R)—N-(2,2-dimethylquinuclidin-3-yl)-1-methyl-1H-benzo[d]imidazole-5-carboxamide hydrochloride], the inhibitory constant (Ki) was greater than 30 µM.

Regarding `CC1(C)[C@H](NC(=O)c2cc3ccc(N4CCOCC4)cc3s2)C2CCN1CC2` [(R)-44, (R)—N-(2,2-dimethylquinuclidin-3-yl)-6-morpholinobenzo[b]thiophene-2-carboxamide hydrochloride], the Ki is greater than 30 µM.

Take `CC1(C)[C@H](NC(=O)c2cc3ccc(N4CCC(F)(F)CC4)cc3s2)C2CCN1CC2` [(R)-45, (R)-6-(4,4-difluoropiperidin-1-yl)-N-(2,2-dimethylquinuclidin-3-yl)benzo[b]thiophene-2-carboxamide hydrochloride]: the inhibition constant Ki was greater than 30 µM.

`CC1(C)[C@H](NC(=O)c2cc3ccc(S(C)(=O)=O)cc3s2)C2CCN1CC2` [(R)-48, (R)—N-(2,2-dimethylquinuclidin-3-yl)-6-(methylsulfonyl)benzo[b]thiophene-2-carboxamide hydrochloride]: the Ki was greater than 30 µM.

As for `CC1(C)[C@H](NC(=O)c2cc3ccc(C4CCOCC4)cc3s2)C2CCN1CC2` [(R)-50, (R)—N-(2,2-dimethylquinuclidin-3-yl)-6-(tetrahydro-2H-pyran-4-yl)benzo[b]thiophene-2-carboxamide hydrochloride], the Ki is greater than 30 µM.

For `O=C(N[C@@H]1C2CCN(CC2)C12CC2)c1cnn2ncccc12` [(R)-80, (R)—N-(1′-azaspiro[cyclopropane-1,2′-bicyclo[2.2.2]octan]-3′-yl)pyrazolo[1,5-b]pyridazine-3-carboxamide hydrochloride], the Ki was greater than 30 µM.

Turning to `O=C(N[C@@H]1C2CCN(CC2)C12CC2)c1cnc2occc2c1` [(R)-89, (R)—N-(1′-azaspiro[cyclopropane-1,2′-bicyclo[2.2.2]octan]-3′-yl)furo[2,3-b]pyridine-5-carboxamide hydrochloride], the Ki is greater than 30 µM.

Take `Cn1cnc2cc(C(=O)N[C@@H]3C4CCN(CC4)C34CC4)ccc21` [(R)-95, (R)-1-methyl-N-(1′-azaspiro[cyclopropane-1,2′-bicyclo[2.2.2]octan]-3′-yl)-1H-benzo[d]imidazole-5-carboxamide hydrochloride]: the Ki is greater than 30 µM.

With `O=C(N[C@@H]1C2CCN(CC2)C12CC2)c1cc2ccc(-n3ccnn3)cc2s1` [(R)-98, (R)—N-(1′-azaspiro[cyclopropane-1,2′-bicyclo[2.2.2]octan]-3′-yl)-6-(1H-1,2,3-triazol-1-yl)benzo[b]thiophene-2-carboxamide hydrochloride], the Ki is greater than 30 µM.

On to `O=C(N[C@@H]1C2CCN(CC2)C12CC2)c1cc2ccc(N3CCOCC3)cc2s1` [(R)-99, (R)-6-morpholino-N-(1′-azaspiro[cyclopropane-1,2′-bicyclo[2.2.2]octan]-3′-yl)benzo[b]thiophene-2-carboxamide hydrochloride], for which the inhibition constant Ki was greater than 30 µM.

As to `CS(=O)(=O)c1ccc2cc(C(=O)N[C@@H]3C4CCN(CC4)C34CC4)sc2c1` [(R)-103, (R)-6-(methylsulfonyl)-N-(1′-azaspiro[cyclopropane-1,2′-bicyclo[2.2.2]octan]-3′-yl)benzo[b]thiophene-2-carboxamide hydrochloride], the inhibition constant (Ki) is greater than 30 µM.

For `CC(C)c1cccc2cc(C(=O)N[C@@H]3C4CCN(CC4)C34CC4)sc12` [(R)-166, (R)-7-isopropyl-N-(1′-azaspiro[cyclopropane-1,2′-bicyclo[2.2.2]octan]-3′-yl)benzo[b]thiophene-2-carboxamide hydrochloride], the inhibitory constant (Ki) is 0.623 µM.

With `O=C(N[C@@H]1C2CCN(CC2)C12CC2)c1cc2cc(F)c(Cl)cc2s1` [(R)-172, (R)-6-chloro-5-fluoro-N-(1′-azaspiro[cyclopropane-1,2′-bicyclo[2.2.2]octan]-3′-yl)benzo[b]thiophene-2-carboxamide hydrochloride], the Ki came to 0.445 µM.

For the molecule `Cl.Cn1cnc2ccc(C(=O)N[C@@H]3C4CCN(CC4)C3(C)C)cc21` [(R)-206, (R)-N-(2,2-dimethylquinuclidin-3-yl)-1-methyl-1H-benzo[d]imidazole-6-carboxamide hydrochloride], the Ki is greater than 30 µM.

`CC1(C)[C@H](NC(=O)c2cc3ccc(-n4ccnn4)cc3s2)C2CCN1CC2.Cl` [(R)-208, (R)-N-(2,2-dimethylquinuclidin-3-yl)-6-(1H-1,2,3-triazol-1-yl)benzo[b]thiophene-2-carboxamide hydrochloride]: the Ki was greater than 30 µM.

Turning to `CC1(C)[C@@H](NC(=O)c2ccc3occc3c2)C2CCN1CC2` [(S)-6, (S)—N-(2,2-dimethylquinuclidin-3-yl)benzofuran-5-carboxamide hydrochloride], the inhibitory constant (Ki) was greater than 30 µM.

For the molecule `CC1(C)[C@@H](NC(=O)c2cc3ccc(C#N)cc3s2)C2CCN1CC2` [(S)-9, (S)-6-cyano-N-(2,2-dimethylquinuclidin-3-yl)benzo[b]thiophene-2-carboxamide hydrochloride], the Ki is greater than 30 µM.

With `CC1(C)[C@@H](NC(=O)c2cc3ccc(C(F)(F)F)cc3s2)C2CCN1CC2` [(S)-10, (S)—N-(2,2-dimethylquinuclidin-3-yl)-6-(trifluoromethyl)benzo[b]thiophene-2-carboxamide hydrochloride], the Ki is greater than 30 µM.

Take `CC1(C)[C@@H](NC(=O)c2cc3cc(Cl)ccc3s2)C2CCN1CC2` [(S)-13, (S)-5-chloro-N-(2,2-dimethylquinuclidin-3-yl)benzo[b]thiophene-2-carboxamide hydrochloride]: the inhibitory constant (Ki) is greater than 30 µM.
